The source of these data is patent publication US20140148430A1, “IMIDAZOPYRIDINES SYK INHIBITORS” (Gilead Connecticut, Inc., priority 2012, published 2014).

SMILES strings stand for the structures.

In this experiment the target is N-terminally GST-tagged full length human wildtype Syk (Homo sapiens, UniProt P43405). Put plainly: Biochemical Syk Assay.
The IC50 is the point on the concentration scale where inhibition reaches its midpoint. Higher therefore signals weaker potency. `Cc1cc(Nc2cc(-c3ccc4c(c3)ncn4C)cn3ccnc23)nn1C` [1,5-dimethyl-N-[6-(1-methyl-1H-1,3-benzodiazol-5-yl)imidazo[1,2-a]pyridin-8-yl]-1H-pyrazol-3-amine] returned an IC50 of 0.188 µM.

Consider `Cc1cc(Nc2cc(-c3ccc4ncn(C)c4c3)cn3ccnc23)nn1C` [1,5-dimethyl-N-[6-(1-methyl-1H-1,3-benzodiazol-6-yl)imidazo[1,2-a]pyridin-8-yl]-1H-pyrazol-3-amine], for which 0.182 µM corresponded to half-maximal inhibition (IC50).

Consider `Cc1c(-c2ccc3c(c2)N(C)C(=O)C3)cc(Nc2ccc(N3CCOCC3)cn2)c2nccn12` [1-methyl-6-(5-methyl-8-(5-morpholinopyridin-2-ylamino)imidazo[1,2-a]pyridin-6-yl)indolin-2-one], for which the IC50 is 1.03 µM.

The compound `Cc1c(-c2ccc3c(CCO)cn(C)c3c2)cc(Nc2ccc(N3CCOCC3)cn2)c2nccn12` [2-(1-methyl-6-(5-methyl-8-(5-morpholinopyridin-2-ylamino)imidazo[1,2-a]pyridin-6-yl)-1H-indol-3-yl)ethanol] registered an IC50 of 0.32 µM. Compared with the last compound, the IC50 is about 3.2-fold lower.

`CCN1CCN(c2ccc(Nc3cc(-c4ccc5c(CCO)cn(C)c5c4)c(Cl)n4ccnc34)nc2)CC1` [2-(6-(5-chloro-8-(5-(4-ethylpiperazin-1-yl)pyridin-2-ylamino)imidazo[1,2-a]pyridin-6-yl)-1-methyl-1H-indol-3-yl)ethanol]: the IC50 turned out to be 0.278 µM.

In turn, `CCN1CCN(c2ccc(Nc3cc(-c4ccc5c(CCO)c[nH]c5c4)c(Cl)n4ccnc34)nc2)CC1` [2-(6-(5-chloro-8-(5-(4-ethylpiperazin-1-yl)pyridin-2-ylamino)imidazo[1,2-a]pyridin-6-yl)-1H-indol-3-yl)ethanol] displayed an IC50 of 0.215 µM.

Consider `CC(C)N1CCN(c2ccc(Nc3cc(-c4ccc5c(CCO)cn(C)c5c4)c(Cl)n4ccnc34)nc2)CC1` [2-(6-(5-ehloro-8-(5-(4-isopropylpiperazin-1-yl)pyridin-2-ylamino)imidazo[1,2-a]pyridin-6-yl)-1-methyl-1H-indol-3-yl)ethanol], for which the IC50 amounted to 0.218 µM.

Regarding `CCN1CCN(c2ccc(Nc3cc(-c4ccc5c(CCO)c[nH]c5c4)c(C)n4ccnc34)nc2)CC1` [2-(6-(8-(5-(4-ethylpiperazin-1-yl)pyridin-2-ylamino)-5-methylimidazo[1,2-a]pyridin-6-yl)-1H-indol-3-yl)ethanol], the IC50 was determined as 0.301 µM. This IC50 and that of the compound before are within 1.5-fold of each other.

Compound `CC(C)(CO)c1ccc(Nc2cc(-c3ccc4c(CCO)c[nH]c4c3)cn3ccnc23)cc1` [2-[4-({6-[3-(2-hydroxyethyl)-1H-indol-6-yl]imidazo[1,2-a]pyridin-8-yl}amino)phenyl]-2-methylpropan-1-ol] displayed an IC50 of 0.138 µM.

`CCN1CCN(c2ccc(Nc3cc(-c4ccc5cc[nH]c5c4)c(Cl)n4ccnc34)nc2)CC1` [5-chloro-N-(5-(4-ethylpiperazin-1-yl)pyridin-2-yl)-6-(1H-indol-6-yl)imidazo[1,2-a]pyridin-8-amine] came in with an IC50 of 0.271 µM.

Take `CCc1c(-c2ccc3cn[nH]c3c2)cc(Nc2ccc(N3CCN(CC)CC3)cn2)c2nccn12` [5-ethyl-N-(5-(4-ethylpiperazin-1-yl)pyridin-2-yl)-6-(1H-indazol-6-yl)imidazo[1,2-a]pyridin-8-amine]: inhibition was half-maximal at 0.252 µM (IC50).

Take `CCc1c(-c2ccc3cc[nH]c3c2)cc(Nc2ccc(N3CCN(CC)CC3)cn2)c2nccn12` [5-ethyl-N-(5-(4-ethylpiperazin-1-yl)pyridin-2-yl)-6-(1H-indol-6-yl)imidazo[1,2-a]pyridin-8-amine]: it took 0.272 µM to reach half-maximal inhibition (IC50).

On to `Cc1c(-c2cnc3[nH]ccc3c2)cc(Nc2ccc(N3CCOCC3)cn2)c2nccn12` [5-methyl-N-(5-morpholinopyridin-2-yl)-6-(1H-pyrrolo[2,3-b]pyridin-5-yl)imidazo[1,2-a]pyridin-8-amine], for which the IC50 came to 0.166 µM.

Take `Cc1c(-c2ccc3cn[nH]c3c2)cc(Nc2ccc(N3CCNCC3)cn2)c2nccn12` [6-(1H-indazol-6-yl)-5-methyl-N-(5-(piperazin-1-yl)pyridin-2-yl)imidazo[1,2-a]pyridin-8-amine]: 0.128 µM corresponded to half-maximal inhibition (IC50).

`NC(=O)c1c(-c2ccc3cn[nH]c3c2)cc(Nc2ccc(N3CCOCC3)cn2)c2nccn12` [6-(1H-indazol-6-yl)-8-(5-morpholinopyridin-2-ylamino)imidazo[1,2-a]pyridine-5-carboxamide]: 0.569 µM corresponded to half-maximal inhibition (IC50).

As for `O=C(O)c1c(-c2ccc3cn[nH]c3c2)cc(Nc2ccc(N3CCOCC3)cn2)c2nccn12` [6-(1H-indazol-6-yl)-8-(5-morpholinopyridin-2-ylamino)imidazo[1,2-a]pyridine-5-carboxylic acid], the IC50 was determined as 4.23 µM.

In the case of `CCc1c(-c2ccc3c(c2)NC(=O)C3)cc(Nc2ccc(N3CCN(CC)CC3)cn2)c2nccn12` [6-(5-ethyl-8-(5-(4-ethylpiperazin-1-yl)pyridin-2-ylamino)imidazo[1,2-a]pyridin-6-yl)indolin-2-one], the IC50 is 0.532 µM.

Compound `CCN1CCN(c2ccc(Nc3cc(-c4ccc5c(C(=O)NC)c[nH]c5c4)c(C)n4ccnc34)nc2)CC1` [6-(8-(5-(4-ethylpiperazin-1-yl)pyridin-2-ylamino)-5-methylimidazo[1,2-a]pyridin-6-yl)-N-methyl-1H-indole-3-carboxamide] showed an IC50 of 0.883 µM. Compared with the last compound, the IC50 is about 1.7-fold higher.

Consider `CCn1ccc(Nc2cc(-c3ccc4c(c3)NC(=O)CO4)cn3ccnc23)n1` [6-{8-[(1-ethyl-1H-pyrazol-3-yl)amino]imidazo[1,2-a]pyridin-6-yl}-3,4-dihydro-2H-1,4-benzoxazin-3-one], for which the midpoint of inhibition, the IC50, lay at 0.548 µM.

Turning to `CCn1ccc(Nc2cc(-c3ccc4nc(N)ncc4c3)cn3ccnc23)n1` [6-{8-[(1-ethyl-1H-pyrazol-3-yl)amino]imidazo[1,2-a]pyridin-6-yl}quinazolin-2-amine], the IC50 came to 0.171 µM. Against the preceding compound, the IC50 is about 3.2-fold lower.

As to `COc1ccc(Nc2cc(-c3ccc4cn[nH]c4c3)cn3ccnc23)cc1OC` [N-(3,4-dimethoxyphenyl)-6-(1H-indazol-6-yl)imidazo[1,2-a]pyridin-8-amine], it took 1.05 µM to reach half-maximal inhibition (IC50).

The compound `CCN1CCN(c2ccc(Nc3cc(-c4ccc5cc(C)[nH]c5c4)c(C)n4ccnc34)nc2)CC1` [N-(5-(4-ethylpiperazin-1-yl)pyridin-2-yl)-5-methyl-6-(2-methyl-1H-indol-6-yl)imidazo[1,2-a]pyridin-8-amine] registered an IC50 of 0.423 µM. Compared with the last compound, the IC50 is about 2.5-fold lower.

In the case of `c1cn2cc(-c3ccc4cn[nH]c4c3)cc(Nc3csc(N4CCOCC4)n3)c2n1` [N-[6-(1H-indazol-6-yl)imidazo[1,2-a]pyridin-8-yl]-2-(morpholin-4-yl)-1,3-thiazol-4-amine], the IC50 amounted to 0.291 µM.

In turn, `c1cc(Nc2cc(-c3ccc4cn[nH]c4c3)cn3ccnc23)ncn1` [N-[6-(1H-indazol-6-yl)imidazo[1,2-a]pyridin-8-yl]pyrimidin-4-amine] gave an IC50 of 0.297 µM.

Take `Cc1cc(Nc2cc(-c3ccc4c(c3)NCCO4)cn3ccnc23)nn1C` [N-[6-(3,4-dihydro-2H-1,4-benzoxazin-6-yl)imidazo[1,2-a]pyridin-8-yl]-1,5-dimethyl-1H-pyrazol-3-amine]: the midpoint of inhibition, the IC50, lay at 0.154 µM. Compared with the last compound, the IC50 is about 1.9-fold lower.
